Experimental data reported in patent US7432398B2, “Inorganic acid salts of sibutramine” (CJ Corporation, priority 2005, dated 2008).

Assay: Evaluation of solubility in solutions having various pH values
Conditions: for solubility compared to sibutramine hydrochloride: distilled water and buffer solutions at various pH values
[1] = DW (distilled water), dissolved at 37° C.

Row | Substance | solubility (mg of sibutramine dissolved per ml of solution) [1] | solubility compared to sibutramine hydrochloride | solubility (mg of sibutramine dissolved per ml of solution) (pH 1.2, dissolved at 37° C.) | solubility (mg of sibutramine dissolved per ml of solution) (pH 4.0, dissolved at 37° C.) | solubility (mg of sibutramine dissolved per ml of solution) (pH 5.3, dissolved at 37° C.) | solubility (mg of sibutramine dissolved per ml of solution) (pH 6.8, dissolved at 37° C.) | solubility (mg of sibutramine dissolved per ml of solution) (pH 7.4, dissolved at 37° C.)
1 | sibutramine phosphate monohydrate [Sibutramine phosphate hydrate] | 38.86 mg/mL | greatly enhanced solubility | 23.92 mg/mL | 50 mg/mL | 50 mg/mL | 24.55 mg/mL | 50 mg/mL
2 | sibutramine hydrogen sulfate | 285 mg/mL | greatly enhanced solubility | 333 mg/mL | 333 mg/mL | 400 mg/mL | 370 mg/mL | 400 mg/mL
